Measured values: patent US20080138836A1, “KINASE AND UBIQUINATION ASSAYS” (INVITROGEN CORPORATION, priority 2006, published 2008)

Biological target: T1, Epidermal Growth Factor Receptor (EGFR) Tyrosine Kinase (Homo sapiens, UniProt P00533)
T1 construct: purchased PanVera, Madison Wis; P2628
Assay: EGFR kinase multiplex FP/TR-RET assay (LOPAC screen and follow-up)
Format: biochemical
Conditions: 10 μM library compound

inhibition in library screen: strong inhibition
Structure (SMILES): COc1cc2ncnc(Nc3cccc(Cl)c3)c2cc1OC [Tyrophostin AG 1478]
